Legend:
[1] = Selectivity index, ratio of IC50 for cytotoxicity against human HCV-29 cells to IC50 for cytotoxicity against human T-24 cells
Method in brief: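 SI is the ratio of IC50 in the non-tumoral cell line to IC50 in the tumoral T24 line, both from proliferation-inhibition assays.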

[2] = system: T-24; assay: Induction of apoptosis in human T-24 cells assessed as necrotic cells at 3 uM in presence of vZAD incubated for 8 hrs by annexin V-FITC and PI staining based flow cytometry analysis (reference value: 0.84 %); type: functional
[3] = system: T-24; assay: Induction of apoptosis in human T-24 cells assessed as late apoptotic cells at 3 uM in presence of vZAD incubated for 8 hrs by annexin V-FITC and PI staining based flow cytometry analysis (reference value: 1.71 %); type: functional

Nc1ccn([C@@H]2O[C@H](CO)[C@@H](O)C2(F)F)c(=O)n1 [GEMCITABINE]
Ratio IC50 [1]: 2.12 | Activity [2]: 3.92% | Activity [3]: 5.25%

From ChEMBL document CHEMBL4765435, “Synthesis and in vitro anti-bladder cancer activity evaluation of quinazolinyl-arylurea derivatives” (Eur J Med Chem, 2020)
